Results reported in patent publication US8106073B2, “Quinoline derivatives 057” (AstraZeneca AB, priority 2007, dated 2012).

Test system: primary rat hepatocytes
Test: In vitro phospholipidosis protocol (DHPE-TRITC accumulation)
Procedure: Assessment of a compounds potential to induce phospholipidosis was determined by an in vitro fluorescent assay which reports the accumulation of phospholipids in primary rat hepatocytes. Hepatocytes were isolated from Han Wistar rats by a 2-stage collagenase digest method. The hepatocytes were then plated on collagen coated 96-well plates in William's E medium. The cells were left to adhere for 1 hour then the media was replaced with a solution of 250 μg.ml^−1 collagen in Hepatozyme cell culture medium.
Cells were then cultured for 48 hours with the medium being changed at 24 hours. At 48 hours post isolation the medium was changed to Hepatozyme supplemented with the fluorescent phospholipid N-(6-tetramethylrhodaminethiocarbamoyl)-1,2-dihexadecanoyl-sn-glycero-3-phosphoethanolamine (DHPE-TRITC) (5 μg.ml^−1). At this time, test compounds were added to the hepatocytes at a range of concentrations in a serial dilution with a final concentration of 0.4% dimethylsulfoxide (used as solvent for test compounds).
The cells were incubated for a further 24 hours and then fixed by addition of a phosphate buffered saline (PBS) solution containing the nuclear stain Hoechst 33342 (final concentration 2 μM) and paraformaldehyde solution (final concentration 4%). The plates were kept at room temperature for 30 minutes then washed three times in PBS solution.
Images of the hepatocytes were then acquired using an automated microscope platform (GE In Cell Analyser 3000). Image analysis algorithms were then used to assess cell viability and the accumulation of the DHPE-TRITC label within viable hepatocytes. The quantified accumulation observed with test compounds was then normalised to a range of 0, representing the accumulation observed in cells exposed to vehicle only, and 1, representing cells exposed to 10 μM amiodarone. The maximum accumulation across the dose response of the test compound, where cell viability is >50%, is reported, as is the dose at which this maximum was observed. The lowest dose that caused >50% cell toxicity is also reported. […]

N[C@H]1CCN(c2ccc3c(C(=O)NCC4CCCCC4)c(Cl)ccc3n2)C1
maximum accumulation concentration (dose at which maximum accumulation was observed): 8 µM | minimum toxic concentration (lowest dose that caused >50% cell toxicity): 23 µM | maximum accumulation (phospholipidosis) (relative to 10 μM amiodarone control (=1), vehicle = 0, cell viability >50%): 0.6
